# Data: PubChem BioAssay AID1224903 (Bradner/Qi Labs at DFCI, 2016)
# The chains behind the UniProt entries cited, without tags or fusion partners.
# UniProt O95931, whole entry: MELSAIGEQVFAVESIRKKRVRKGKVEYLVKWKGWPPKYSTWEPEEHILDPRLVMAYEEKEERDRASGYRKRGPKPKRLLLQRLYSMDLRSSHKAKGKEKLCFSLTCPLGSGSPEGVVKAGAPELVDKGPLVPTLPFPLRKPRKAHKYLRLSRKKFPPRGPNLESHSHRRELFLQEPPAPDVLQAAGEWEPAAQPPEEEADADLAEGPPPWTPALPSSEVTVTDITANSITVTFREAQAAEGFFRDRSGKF
# Only a part is listed here, and it is no random draw. Activity calls are given as the source filed them. No stated cut-off is given here; in the data, active means normalised signal below about 0.5; inactive means the rest, inconclusive results apart.
# Molecular target: Chromobox protein homolog 7 (Homo sapiens) (UniProt O95931)
# Test: CBX7 chromodomain binding inhibitors, primary screen, biochemical, AlphaScreen (AID 1224903)
# Conditions: AlphaScreen His6-CBX7 / biotin-H3K27me3 peptide binding; stronger effect = lower value
row,Structure (SMILES),normalised signal (fraction of DMSO)
1,NC(=O)C1(Nc2ccccc2)CCN(Cc2ccccc2)CC1,inactive: 0.945
2,COc1ccc(NC2CCN(CCCC(=O)c3ccc(F)cc3)CC2)cc1,inactive: 0.632
3,O=C(CCCN1CCC(Nc2ccccc2)CC1)c1ccc(F)cc1,inactive: 0.838
4,CN1CCN(CCOC(=O)C(O)(c2ccccc2)c2ccccc2)CC1,inactive: 0.988
